Protein sequences, listed by entry. Tags and fused reporters are not part of them.
UniProt P08908, whole entry: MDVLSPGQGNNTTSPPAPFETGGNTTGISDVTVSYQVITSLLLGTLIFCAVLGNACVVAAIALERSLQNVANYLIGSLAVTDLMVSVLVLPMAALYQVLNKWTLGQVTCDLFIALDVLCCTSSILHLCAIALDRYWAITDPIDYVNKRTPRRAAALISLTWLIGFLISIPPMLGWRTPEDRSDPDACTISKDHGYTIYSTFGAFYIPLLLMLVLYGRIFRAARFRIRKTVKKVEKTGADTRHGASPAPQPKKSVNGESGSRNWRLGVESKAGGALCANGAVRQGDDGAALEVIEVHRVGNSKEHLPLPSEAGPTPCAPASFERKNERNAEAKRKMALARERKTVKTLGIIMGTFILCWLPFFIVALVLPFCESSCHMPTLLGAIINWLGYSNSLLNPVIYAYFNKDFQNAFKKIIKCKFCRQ

According to ChEMBL document CHEMBL3593225 (Bioorg Med Chem, 2015):

Columns and labels:
[1] = biological target: T1, 5-hydroxytryptamine receptor 1A (Homo sapiens, UniProt P08908); test: Agonist activity at human 5-HT1A receptor expressed in CHO cells assessed as inhibition of forskolin-stimulated cAMP accumulation after 15 mins by ELISA relative to 5-HT; format: functional, cell-based
How it was run: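 CHO-1A cells (10^4/well) grown 24 h, then 24 h in serum-free DMEM/F-12. Compounds co-incubated with 1 μM forskolin for 15 min at 37 °C in serum-free medium with 5 μM pargyline and 2.5 mM theophylline. Lysis in 1% Triton X-100/0.1 M HCl, cAMP measured by acetylated ELISA. Forskolin alone set as 0%, 5-HT maximum as 100%. Sigmoidal or Gaussian bell-shaped fits.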

[2] = biological target: T1, 5-hydroxytryptamine receptor 1A; test: Ratio for agonist activity at human 5-HT1A receptor expressed in CHO cells by forskolin-stimulated cAMP accumulation assay to agonist activity at human 5-HT1A receptor expressed in CHO cells by beta-arrestin-2 recruitment assay; format: functional, cell-based
[3] = biological target: T1, 5-hydroxytryptamine receptor 1A; test: Agonist activity at human 5-HT1A receptor expressed in CHO cells after 90 mins by beta-arrestin-2 recruitment assay relative to 5-HT; format: cell-based
How it was run: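 PathHunter enzyme-complementation β-arrestin-2 recruitment in CHO-K1 cells carrying HTR1A, 10^4 cells/well, plated 24–48 h at 37 °C before use. Compounds from methanol stocks, final 0.1–100 μM, applied for 90 min at 37 °C. Detection reagents then added for 60 min at room temperature, luminescence read. Pooled from 3–4 independent experiments in duplicate, with 5-HT on every plate as reference.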

Emax [1]: 59.6% | Ratio [2]: < 10 | Emax [3]: 16.2%
SMILES: COc1cccc2c1CCCC2CCCN1CCN(c2ccccn2)CC1 (stereo not drawn)
